Literature values as cited in patent US8680142B2, “Ascorbate, vitamin K3 and hydroxytolans in the treatment of cancer” (Kent State University, priority 2007, dated 2014).

System: Mice
Conditions: cited from earlier work

CC1=CC(=O)c2ccccc2C1=O [VK3, 2-methyl-1,4-naphthoquinone]
chronic toxicity (erythrocyte count, hemoglobin, growth curves) (mouse, in vivo, po, 250 mg/kg): did not affect either parameter | mortality (oral doses of 200 mg/Kg): No mortality
